From PubChem BioAssay AID1671190 (National Center for Advancing Translational Sciences (NCATS), 2021)
The entries are a selection whose mix differs from that of the whole data set. Inconclusive results are not listed. The source made the active and inactive calls. Calls come from the whole dose curve; as a rule, active = well fitted inhibition curve with a large enough effect; inconclusive = small, poorly fitted or top-dose-only effect, or another doubt; inactive = no such curve, though single readings can be large or run the other way.

By UniProt entry, the sequences of proteins in these tests, tags left out. Where a name states a change or a piece, a line headed by the entry shows the natural chain unless it says otherwise.
UniProt P18054: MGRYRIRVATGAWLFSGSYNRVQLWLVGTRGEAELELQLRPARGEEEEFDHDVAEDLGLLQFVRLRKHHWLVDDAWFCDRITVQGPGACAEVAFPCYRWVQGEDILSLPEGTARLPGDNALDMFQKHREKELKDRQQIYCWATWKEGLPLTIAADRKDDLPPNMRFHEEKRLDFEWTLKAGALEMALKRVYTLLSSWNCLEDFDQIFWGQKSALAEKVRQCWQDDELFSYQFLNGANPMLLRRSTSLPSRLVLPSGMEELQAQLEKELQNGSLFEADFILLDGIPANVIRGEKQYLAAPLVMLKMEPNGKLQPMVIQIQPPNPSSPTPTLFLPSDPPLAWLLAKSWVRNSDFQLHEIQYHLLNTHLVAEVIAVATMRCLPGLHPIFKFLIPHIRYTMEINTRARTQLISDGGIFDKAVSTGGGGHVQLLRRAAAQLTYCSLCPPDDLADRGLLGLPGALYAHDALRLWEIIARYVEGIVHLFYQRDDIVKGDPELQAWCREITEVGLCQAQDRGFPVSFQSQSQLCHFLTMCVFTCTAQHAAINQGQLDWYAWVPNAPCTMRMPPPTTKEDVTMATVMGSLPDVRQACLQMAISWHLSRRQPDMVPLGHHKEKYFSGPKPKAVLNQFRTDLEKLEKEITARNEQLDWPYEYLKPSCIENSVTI

What follows are compounds tested against Polyunsaturated fatty acid lipoxygenase ALOX12 (Homo sapiens) (UniProt P18054) (assay: Primary qHTS assay for inhibitors of human arachidonate 12S-lipoxygenase (ALOX12): Round 2). Settings: purified 12hLO, xylenol orange hydroperoxide absorbance; series mostly up to 108 µM; activity change, negative = inhibition: at the top concentration.
Source text: Assay Provider: Theodore R. Holman Ph.D. University of California, Santa Cruz, California Human lipoxygenase 12hLO is a member of the closely related lipoxygenase family of enzymes which catalyze the site-specific oxidation of arachidonic acid to various hormone precursor molecules and as such is a candidate for drug development in a variety of disease areas, such as cancer and inflammation. Inhibition of 12hLO activity was screened by utilizing arachidonic acid as a substrate. The extent of hydroperoxide product formation was measured by a secondary chromogenic reaction in which xylenol orange (XO, Sigma-Aldrich, cat. number 39,818-7) reacts with the ferric ions produced from the reaction between the hydroperoxide and ferrous ions. The Fe (III)-XO complex is characterized with red-shifted absorbance at 560 nm. A purified preparation of human 12hLO was supplied by Dr. Holman laboratory, University of California, Santa Cruz.
PROTOCOL TABLE SEQUENCE No. (e.g., 1, 2, 3, etc.); […] (e.g., Cells, Incubation, Reagent, etc.); VALUE; DESCRIPTION 1; Enzyme; 3 uL; 150 nM 12hLO enzyme solution dispensed in 1536-well Greiner black, clear bottom plates. 2; Compound; 23 nL; compounds and controls were added. 3; Incubate; 15 min; room temperature. 4; Substrate; 1 uL; 40 uM arachidonic acid (final concentration). 5; Incubate; 30 min; room temperature. 6; Reagent; 4 uL; Fe-XO solution was added to each well. 7; Incubation; 30 min; room temperature 8; Detector; absorbance; Read 1 at 405 nm absorbance using ViewLux (Perkin-Elmer) CCD imager. 9; Detector; absorbance; Read 2 at 573 nm absorbance using ViewLux (Perkin-Elmer) CCD imager. NOTES (numbers refer to sequence above) 1; 150 nM 12hLO (final concentration) in buffer solution (25 mM Hepes, 0.01% Triton X-100, pH 7.0) was dispensed in columns 1, 2, 5-48. Column 1 is neutral (100% activity). Buffer only was dispensed in columns 3 and 4 as no enzyme negative controls. The plates were covered with metal lids with gas-exchange holes. 2; Compounds were pin transferred via a Kalypsys Pin Tool (Wako USA) in column 5-48. Control compound was transferred in column 2, titration of nordihydroguaiaretic acid (NDGA, Sigma-Aldrich, N5023) with top concentration of 20 mM in DMSO then 1:3 dilution in duplicate. Dilution factor of 23 nL into 4 uL final assay volume. 3; Covered assay plates were incubated for 15 min at room temperature. 4; Substrate was added to start the reaction; 40 uM arachidonic acid (Sigma-Aldrich, St. Louis, MO) was dispensed throughout the plate. 6; Chromogenic detection reagent solution (divalent iron/xylenol orange, Fe-XO) was added to each well: 200 uM xylenol orange, 300 uM ferrous ammonium sulfate prepared freshly in 50 mM sulfuric acid. 8, 9; Two absorbance readouts were obtained at 405 nm and at 573 nm using a ViewLux high-throughput CCD plate imager (Perkin-Elmer). The 573 to 405 (Read 2 / Read 1) absorbance ratio was used to compute reaction progress.
% is set by controls: 0 for no effect and ±100 for the full control effect; potency is the fitted concentration of half-maximal effect.

| Compound | activity change, negative = inhibition | Potency |
| --- | --- | --- |
| O=C(COc1ccccc1)OC1CN2CCC1CC2 (centres undefined) | inactive: -32.1% | – |
| O=C(Nc1ccncc1[N+](=O)[O-])c1ccc([N+](=O)[O-])cc1[N+](=O)[O-] | inactive: 0% | – |
| Cc1cccc(C(=O)NC(Sc2ccccc2)C(Cl)(Cl)Cl)c1 (centres undefined) | inactive: -1.63% | – |
| O=C(O)C(=O)c1ccc(N(CCCl)CCCl)cc1 | inactive: -21.2% | – |
| COP1(=S)c2c(C)nn(CCC#N)c2N=C(c2ccc(F)cc2)N1C (centres undefined) | inactive: -30.7% | – |
| COC(=O)C1(C)COP(=O)(N2CCCC2)OC1 (centres undefined) | inactive: 4.85% | – |
| CCC(C)N(CC(C)C)C(=S)SC(NC(C)=O)C(Cl)(Cl)Cl (centres undefined) | inactive: 6.05% | – |
| O=C(OC1CN2CCC1CC2)c1cccc([N+](=O)[O-])c1 (centres undefined) | inactive: -1.92% | – |
| COP(=O)(OC)N1CC1c1ccccc1 (centres undefined) | inactive: -14.3% | – |
| CC1CCNP(=O)(N(CCCl)CCCl)O1 (centres undefined) | inactive: 1.43% | – |
| CCOC(=O)Nc1ccc([As](=O)(O)O)c(O)c1 | inactive: 3.91% | – |
| O=C(O)C(O)c1ccc(N(CCCl)CCCl)cc1 (centres undefined) | inactive: -1.21% | – |
| O=[N+]([O-])c1ccc(Nc2ccc(Oc3ccc([N+](=O)[O-])cc3[N+](=O)[O-])cc2)c([N+](=O)[O-])c1 | inactive: -5.83% | – |
| O=P(Nc1ccccn1)(c1cccc2ccccc12)c1cccc2ccccc12 | inactive: 7.9% | – |
| CCOC(=O)Nc1cccc([As](=O)(O)O)c1 | inactive: -10.8% | – |
| Cc1ccc2nc3c(c(C)c2c1)CC(C(Cl)Cl)S3 (centres undefined) | inactive: -24.2% | – |
| [N-]=[N+]=NC1CCCCC1NC(=O)c1cc([N+](=O)[O-])cc([N+](=O)[O-])c1 (centres undefined) | inactive: 0% | – |
| Cc1ccc(OP(=O)(Nc2ccc([N+](=O)[O-])cn2)Oc2ccc(C)cc2)cc1 | inactive: 1.29% | – |
| C[As](=O)(O)c1cccc(C(=O)O)c1 | inactive: 6.17% | – |
| O=[As](O)(c1ccc(O)cc1)c1ccccc1O | inactive: -20.1% | – |

| Compound | activity change, negative = inhibition | Potency |
| --- | --- | --- |
| COc1cc(C(=O)NCC2(N3CCOCC3)CCCCC2)ccc1OCC(C)C | inactive: -4.82% | – |
| O=[N+]([O-])c1ccc(-c2cc([N+](=O)[O-])c(O)c([N+](=O)[O-])c2)cc1 | – | active: 39.8 µM |
| O=C(OC1CN2CCC1CC2)c1cccc2[nH]cnc12 (centres undefined) | inactive: -7.93% | – |
| CCN(CC)C(=S)SC(NC=O)C(Cl)(Cl)Cl (centres undefined) | inactive: 22.5% | – |
| CC(C)NC(=O)NP(=O)(Oc1ccccc1)Oc1ccccc1 | inactive: -2.24% | – |
| CC(C)c1ccc(OP(=O)(Nc2ccccn2)Oc2ccccc2F)cc1 (centres undefined) | inactive: 9.85% | – |
| COC(=O)C1(C)COP(=O)(N2CCCCCC2)OC1 (centres undefined) | inactive: -12.8% | – |
| ClCCSc1nnc(-c2cccnc2)o1 | inactive: -3.4% | – |
| COc1ccc2nc(NP(=O)(c3ccccc3)c3ccccc3)sc2c1 | inactive: -9.84% | – |
| COc1cc(I)ccc1[As](=O)(O)O | inactive: -18.1% | – |
| O=P1(N(CCCl)CCCl)OCCCN1CCCl (centres undefined) | inactive: -6.63% | – |
| O=P1(N(CCCl)CCCl)Nc2ccccc2N1 | inactive: -17.4% | – |
| O=C(OC1CN2CCC1CC2)C12CC3CC(CC(C3)C1)C2 (centres undefined) | inactive: -22.3% | – |
| Cc1cc(=O)[nH]c(N[N+](=O)[O-])n1 | inactive: -0.845% | – |
| Cc1c2c(nc3ccccc13)SC(C(Cl)Cl)C2 (centres undefined) | inactive: -16% | – |
| COc1ccc(N/C(=N/P(=O)(N2CCOCC2)N2CCOCC2)N2CCOCC2)cc1 | inactive: 39.4% | – |
| O=[N+]([O-])c1cc(Oc2ccc([N+](=O)[O-])cc2C(F)(F)F)cc([N+](=O)[O-])c1 | inactive: -2.87% | – |
| BrCC1CN=C(Nc2ccccc2)S1 (centres undefined) | – | active: 0.891 µM |
| Fc1ccc(NC2=NCC(CI)S2)c(F)c1 (centres undefined) | – | active: 7.94 µM |
| Cc1cccc(OCC(=O)OC2CN3CCC2CC3)c1 (centres undefined) | inactive: 0% | – |

| Compound | activity change, negative = inhibition | Potency |
| --- | --- | --- |
| COc1cc(C(=O)NCC2(N3CCOCC3)CCCCC2)cc(Cl)c1OC(C)C | inactive: -32.9% | – |
| O=[As](O)(O)c1cccnc1 | inactive: -23.8% | – |
| CS(=O)(=O)c1ccc(Cl)c(NC(=O)COC(=O)C(O)(c2ccccc2)c2ccccc2)c1 | inactive: 33.1% | – |
| COc1cc(C2NCCC3(OCCO3)C2(C)C)cc(OC)c1OC (centres undefined) | inactive: 23.3% | – |
| CCOP(=O)(Nc1cccc2ccccc12)OCC | inactive: -1.24% | – |
| CCCOP(=S)(Nc1nc(N)cc(=O)[nH]1)OCCC | inactive: 12.9% | – |
| Nc1cccc2c([As](=O)(O)O)cccc12 | inactive: 0% | – |
| Nc1ccccc1[As](=O)(O)c1ccccc1 | inactive: -0.343% | – |
| CCn1c(=O)n([C@@H]2CCN(CC3CCCCCCC3)C[C@@H]2CO)c2ccccc21 | inactive: -17.4% [at 57.4 µM] | – |
| O=C(O)COc1ccc([As](=O)(O)O)cc1[N+](=O)[O-] | inactive: 0% | – |
| CCOP1(=S)c2c(C)nn(CCC#N)c2N=C(c2ccccc2F)N1C (centres undefined) | inactive: -36.3% | – |
| O=P(Nc1nccs1)(Oc1ccccc1)Oc1ccccc1 | inactive: -1.06% | – |
| CN(C)C(=O)c1cc([N+](=O)[O-])cc2c1-c1c(cc([N+](=O)[O-])cc1[N+](=O)[O-])C2=O | inactive: 0.158% | – |
| O=[N+]([O-])c1ccc2c(c1)nnn2O | inactive: 0% | – |
| CN(C(=O)Cc1ccc(Cl)c(Cl)c1)[C@H]1CC[C@@]2(CCCO2)C[C@@H]1N1CCCC1 | – | inactive |
| N#CCCN(C(=O)COC(=O)C(O)(c1ccccc1)c1ccccc1)c1ccc(F)cc1 | inactive: -6.64% | – |
| CN(C(=O)Cc1ccccc1)[C@@H]1CC[C@]2(CCCO2)C[C@H]1N1CCCC1 | inactive: 0.281% | – |
| CCOP1(=S)c2c(C)nn(CCC#N)c2N=C(c2ccc(F)cc2)N1C (centres undefined) | inactive: -28.7% | – |
| NC(=O)Nc1ccc([As](=O)(O)O)cc1 | – | inactive |
